Compounds with a hit are over-represented: about 16% of the library has one in this group of screens.
TDP1 block – blocks human tyrosyl-DNA phosphodiesterase 1 | recombinant TDP1, AlphaScreen DNA substrate cleavage | hit rate 0.28% among 350,000 | Q9NUW8 | AID 485290 | Potency, µM (series often up to 130 µM), most hits filed as inhibitors; note: nearly all actives have a fitted effect of over 40% in size
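Recombinant human Tdp1 (E. coli-expressed, 1 nM final) preincubated with compounds 15 min at room temperature, then 5'-biotin/3'-phosphotyrosine-FITC DNA substrate (15 nM final) added for 5 min. AlphaScreen beads (10 ug/ml final) added 10 min; cleavage lowers signal.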
miR-21 reporter – miR-21 reporter, rising signal. 340,000 tested, under 10 active. Potency, µM (highest dose often 38.3 µM). HeLa miR-21 FLuc reporter, luciferase, 48 h. AID 2288; active = well fitted rising curve with a large enough effect; inconclusive = small, poorly fitted or top-dose-only effect; inactive = no such curve, though single readings can be large or run the other way;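 further: miR-21 action dims this reporter so a rising signal means less miR-21 action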
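Using DMEM plus 10% FBS, HeLa miR-21-FLuc cells are incubated with test compounds (final up to about 40uM) for 48 hours; firefly luciferase signal is then imaged following reagent-mediated lysis.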
TDP1 cell noCPT – qHTS for Inhibitors of human tyrosyl-DNA phosphodiesterase 1 (TDP1): qHTS in cells in absence of CPT | AID 686978, 2013 | Potency, µM (top dose mostly 46.2 µM), most hits filed as inhibitors | hit rate 15% among 420,000 | DT40 Tdp1-/- hTDP1 cells, no CPT, ATP luminescence, 48 h; note: nearly all actives have a fitted effect of over 55% in size
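DT40 Tdp1-/-;hTDP1 cells, no CPT (DMSO vehicle only), 400 cells/well; compounds pin-transferred; ≥48 hr, 37 °C; CellTiter-Glo 30 min RT dark, luminescence read.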
DT40 TDP1 CPT – DT40-hTDP1 cell growth loss with CPT. chicken DT40 Tdp1-/-;hTDP1 cells + 20 nM CPT, ATP luminescence, 48 h. hit rate 12% among 420,000. Potency, µM (doses to about 46.2 µM), most hits filed as inhibitors; note: nearly all actives have a fitted effect of over 55% in size
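Cell growth measured by CellTiter-Glo luminescence after a minimum 48 h, 37 C compound exposure with 20 nM CPT in Tdp1-knockout DT40 cells stably expressing hTDP1, seeded 400/well; qHTS titration format.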
uPA generation – cell surface uPA generation inhibition. Potency, µM (highest dose often 38.3 µM), actives largely listed as inhibitors. hit rate 0.31% among 330,000. cell surface uPA generation assay, qHTS. AID 540303; active = well fitted inhibition curve with a large enough effect; inconclusive = small, poorly fitted or top-dose-only effect; inactive = no such curve, though single readings can be large or run the other way; tested in mouse RAW 264.7 cells; note: nearly all actives have a fitted effect of over 55% in size
Hits are given with their value; i = inactive; ? = inconclusive; nt = no result; ! = a repeat was not active; [ ] = remark or other dose. Unless noted, calls come from the whole dose curve; as a rule, active = well fitted curve in the direction sought with a large enough effect; inconclusive = small, poorly fitted or top-dose-only effect, or another doubt; inactive = no such curve, though single readings can be large; an effect the other way counts as inactive or inconclusive.

SMILES	TDP1 block	miR-21 reporter	TDP1 cell noCPT	DT40 TDP1 CPT	uPA generation
Cc1cccc(NS(=O)(=O)c2ccc(C(=O)N3CCCC3)cc2)c1C	nt	nt	15µM	i	i
Cc1cccc(NS(=O)(=O)c2ccc(C(=O)N3CCCCCC3)cc2)c1C	i	nt	23µM	?	i
COc1cccc(CN(C)C(=O)c2ccc(S(=O)(=O)Nc3cccc(C)c3C)cc2)c1OC	nt	nt	18µM	18µM	nt
Cc1cccc(NS(=O)(=O)c2ccc(C(=O)N3CC(C)OC(C)C3)cc2)c1C (stereo unspecified)	i	nt	?	?	i
COC(=O)C1OC(=O)C2OC23[C@]2(C)C(O)CC4C(C)(C)C(OC(C)=O)CC(OC(C)=O)[C@@]4(C)C2CC[C@@]13C (stereo partly specified)	i	nt	i	i	nt
O=C(c1cccs1)N(c1ccc(Br)cc1)C1C=CS(=O)(=O)C1 (stereo unspecified)	i	i	i	?	i
COc1ccccc1C1CCN(Cc2ccccc2)CC1	nt	i	i	?	i
c1ccc(CN2CCC3CC2c2c3cccc2N2CCOCC2)cc1 (stereo unspecified)	nt	nt	15µM	?	nt
CC1(C(=O)O)CCC(C(=O)NC2CCCCCC2)C1(C)C (stereo unspecified)	i	i	i	i	nt
CCO[C@H]1OC(C(=O)NCc2ccccc2)=C[C@@H](C2CCCCC2)[C@@H]1CCCO	i	i	16µM	18µM	i
CCO[C@@H]1OC(C(=O)N2CCN(Cc3ccc4c(c3)OCO4)CC2)=C[C@H](c2ccc(C(F)(F)F)cc2)[C@H]1CCCO	i	i	21µM	16µM	i
CCO[C@@H]1OC(C(=O)N2CCN(Cc3ccc4c(c3)OCO4)CC2)=C[C@H](C2CCCCC2)[C@H]1CCCO	i	i	?	21µM	i
CCO[C@H]1OC(C(=O)N2CCN(Cc3ccccc3)CC2)=C[C@@H](C2CCCCC2)[C@@H]1CCCO	i	i	9.2µM	9.2µM	i
CCO[C@H]1OC(C(=O)N2CCN(C)CC2)=C[C@@H](c2ccc3c(c2)OCO3)[C@@H]1CCCO	i	i	i	i	i
CCO[C@H]1OC(C(=O)N2CCN(Cc3ccc4c(c3)OCO4)CC2)=C[C@@H](C(C)(C)C)[C@@H]1CCCO	i	i	?	?	i
CCO[C@H]1OC(C(=O)N2CCCCCCC2)=C[C@@H](C2CCCCC2)[C@@H]1CCCO	i	i	13µM	26µM	i
C#CCNC(=O)C1=C[C@@H](c2ccc(C(F)(F)F)cc2)[C@H](CCCO)[C@@H](OCC)O1	i	i	?	23µM	i
COc1cc(CC(=O)OCC(=O)N(C)C2CCCCC2)cc(OC)c1OC	i	nt	21µM	?	i
Cc1nnsc1C(=O)NC(C)C12CC3CC(CC(C3)C1)C2 (stereo unspecified)	i	i	i	?	i
CCOC(=O)c1cnc2c(C)c(Cl)ccc2c1NCCc1ccccc1	i[12.3 µM]	i	i	i	nt
COc1ccc(-c2nn3c(C4CCCCC4)nnc3s2)cc1OC	i	i	?	15µM	i
COc1cc(-c2nn3c(C4CCCCC4)nnc3s2)cc(OC)c1OC	i	i	21µM	?	i
CC(C)(C)NC(=O)[C@@H]1CN(Cc2cccnc2)CCN1C[C@@H](O)C[C@@H](Cc1ccccc1)C(=O)N[C@H]1c2ccccc2C[C@H]1O	nt	nt	12µM!	?	i
CC(C)=CCN1CCN(Cc2cccnc2)CC1CCO (stereo unspecified)	i	i	i	i	i
CC1CCN(S(=O)(=O)c2cccc(C(=O)N(C)C3CCS(=O)(=O)C3)c2)CC1 (stereo unspecified)	i	i	i	i	i
SMILES	TDP1 block	miR-21 reporter	TDP1 cell noCPT	DT40 TDP1 CPT	uPA generation
O=c1[nH]c2ccc(NCc3ccc(-c4ccccc4F)o3)cc2[nH]1	i	i	18µM	23µM	nt
Cc1ccc(-c2nc3ccc(C)cn3c2Cc2ccccn2)cc1	nt	nt	18µM	?	nt
Cc1ccc2nc(-c3ccc(Cl)cc3)c(Cc3ccccn3)n2c1	nt	nt	16µM	18µM	nt
Cc1ccc2nc(-c3cccc(Br)c3)c(Cc3ccccn3)n2c1	nt	nt	?	21µM	nt
Cc1ccc2nc(-c3ccccc3)c(CN3CCSCC3)n2c1	i	i	?	?	i
COC(=O)Cn1nc(C)c2c(C)n(-c3ccccc3)nc2c1=O	i	i	i	i	nt

Screening results deposited in PubChem BioAssay by National Center for Advancing Translational Sciences (NCATS).
